Assay [1] has as its target ribosome-nascent chain complex bearing the first ~90 amino acids of pPL(ssmt), labelled with BODIPY-FL (bovine) (UniProt P01239). Put plainly: FRET or BRET; equilibrium titration, apparent Kd from the single curve; 1 nM RNC(ssmt)-BDP, SRP-TMR titrated, 62.5 nM unlabelled NAC; 25 C, Assay buffer, 1 mg/mL BSA. In general terms: In BRET a luciferase serves as donor, and the signal depends on an acceptor being close.

The target is the same in assay [2]. Put plainly: FRET or BRET; equilibrium titration, apparent Kd from the single curve; 1 nM RNC(ssmt)-BDP, SRP-TMR titrated, 31.25 nM unlabelled NAC; 25 C, Assay buffer, 1 mg/mL BSA.
The target is the same in assay [3]. Briefly: FRET or BRET; equilibrium titration, apparent Kd from the single curve; 1 nM RNC(ssmt)-BDP, SRP-TMR titrated, 15.625 nM unlabelled NAC; 25 C, Assay buffer, 1 mg/mL BSA.
Assay [4] shares this target. Put plainly: FRET or BRET; equilibrium titration, apparent Kd from the single curve; 1 nM RNC(ssmt)-BDP, SRP-TMR titrated, 3.90625 nM unlabelled NAC; 25 C, Assay buffer, 1 mg/mL BSA.
For assay [5] the target is unchanged. Briefly: FRET or BRET; equilibrium titration, apparent Kd from the single curve; 1 nM RNC(ssmt)-BDP, SRP-TMR titrated, 1.953125 nM unlabelled NAC; 25 C, Assay buffer, 1 mg/mL BSA.
Assay [6] shares this target. Put plainly: FRET or BRET; equilibrium titration, apparent Kd from the single curve; 1 nM RNC(ssmt)-BDP, SRP-TMR titrated, 0.9765625 nM unlabelled NAC; 25 C, Assay buffer, 1 mg/mL BSA.
For assay [7] the target is unchanged. Briefly: FRET or BRET; equilibrium titration, apparent Kd from the single curve; 1 nM RNC(ssmt)-BDP, SRP-TMR titrated, 0.48828125 nM unlabelled NAC; 25 C, Assay buffer, 1 mg/mL BSA.

For “human signal recognition particle labelled with tetramethylrhodamine at residue 12 of SRP54 (from UniProt P61011 1-504; P09132 1-144; P49458 1-86; P37108 1-136; Q9UHB9 1-627; O76094 1-671) (complex)”, the Kd in assay [1] worked out at 10.3 nM; in assay [2] it was 5.18 nM; in assay [3], 5.28 nM; in assay [4], 3.49 nM; in assay [5], 2.28 nM; in assay [6] it was 1.85 nM. Besides, in assay [7], the Kd worked out at 1.78 nM.
